The text below walks through data of article PMC3582710 (Chemico-biological interactions, 2012).

Amino acid sequences for entries named in this document (tags omitted). Residues count along the entry.
UniProt P06276, 29-602: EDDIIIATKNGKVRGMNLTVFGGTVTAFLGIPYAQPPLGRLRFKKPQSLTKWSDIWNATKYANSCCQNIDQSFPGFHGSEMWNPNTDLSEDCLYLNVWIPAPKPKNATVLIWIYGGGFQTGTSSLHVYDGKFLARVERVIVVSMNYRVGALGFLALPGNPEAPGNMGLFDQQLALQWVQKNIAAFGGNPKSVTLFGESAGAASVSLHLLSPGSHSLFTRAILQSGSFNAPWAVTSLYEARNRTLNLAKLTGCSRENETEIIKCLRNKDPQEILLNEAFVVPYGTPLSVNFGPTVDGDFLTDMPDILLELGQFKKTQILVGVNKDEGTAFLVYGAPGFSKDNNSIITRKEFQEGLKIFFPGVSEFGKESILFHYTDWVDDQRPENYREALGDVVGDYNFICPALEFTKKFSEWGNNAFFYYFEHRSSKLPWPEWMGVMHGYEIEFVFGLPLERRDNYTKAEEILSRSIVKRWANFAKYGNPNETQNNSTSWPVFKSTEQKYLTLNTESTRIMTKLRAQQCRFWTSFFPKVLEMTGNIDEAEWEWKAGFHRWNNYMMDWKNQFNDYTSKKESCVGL

The target in the assay is BChE (Homo sapiens, UniProt P06276). Put plainly: BChE inhibition, butyrylthiocholine substrate, Ellman's reagent. In kind it is biochemical.

`CCN(C)C(=O)Oc1cccc([C@H](C)N(C)C)c1` [Rivastigmine, rivastigmine] displayed an IC50 of 280 ± 110 µM.

By IC50 is commonly meant the point on the concentration scale where inhibition reaches its midpoint. A higher IC50 goes with weaker potency in that assay.
